Sampled rows, rich in hits. Any-hit rate of the full collection: about 2.1%.
UUG fidelity = modulators of yeast start codon fidelity, primary screen, whole organism, S. cerevisiae, single point, plate reader. S. cerevisiae UUG-firefly luciferase reporter, luminescence/redox ratio. activity score, % at 18.7 µM. 350,000 tested, 0.13% active;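 active = replicate mean at a twofold rise or more, about +100% in these data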;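 also: firefly luciferase made from a UUG start codon reports start codon fidelity; reporter light over untreated wells divided by growth signal over untreated wells; some hits fall short of that in this replicate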
SMARCA2 act = SMARCA2 (BRM) function activators, primary screen, cell-based, luminescence, high throughput. MG213 cells, MMTV-luciferase reporter, dexamethasone, overnight. activation, % at 9.1 µM. 1% of 370,000 active. AID 652017, 2013; in the data active = activation above about 7.8%
INS-1E GSIS act = GLuc luminescence reporter in INS-1E cells, primary screen for activators of glucose-dependent secretion of insulin. INS-1E GLuc reporter insulin secretion, 2-3 h. activation, % at 16.6 µM. 0.61% of 370,000 active;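 active = lowest replicate activation of at least 40%, so every replicate reaches that level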
Rev-erbA mod = modulators of Rev-erb alpha DNA binding, primary screen, biochemical, FITC-DNA, fluorescence polarization, uHTS; Rev-erbα–FITC-DNA binding, 90 min; activity, % at 10 µM; 0.79% of 370,000 active;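 active = activity above about 14%, limit read from the data; passing the limit was not always enough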
ERp5 block = inhibitors of ERp5-driven insulin aggregation, primary screen, biochemical, turbidity, absorbance 650 nm, single point; Protein disulfide-isomerase A6 (Homo sapiens), Q15084; 90 min; inhibition, % at 9.99 µM; 0.05% of 350,000 active; AID 651711, 2012;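 active = mean replicate inhibition above about 25%, with every replicate also reaching it, limit read from the data, passing the limit was not always enough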
PDI inh = inhibitors of human PDI, primary screen, biochemical, turbidity, single point, plate reader. PDI insulin aggregation turbidity, A650, 90 min. inhibition, % at 10 µM. 0.052% of 350,000 active. AID 588391, 2011;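 active = mean inhibition across replicates of 30% or more, whatever share of single replicates reach that level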
SMARCA2 act conf = SMARCA2 (BRM) function activators, confirmation, cell-based, luminescence, triplicate. 30% of 3,500 active. shares compounds with SMARCA2 act. AID 652260, 2013. activation, % at 9.1 µM. MG213 cells, MMTV-luciferase with dexamethasone, overnight; MG213 cells expressing E1A, Rb sequestered; DMSO wells 0%, reference activator 100%;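 active = activation above its plate's cutoff, the mean activation of tested wells plus 3 SD, cut at about 7.9% in these data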
VP16 Luc act = GAL4-VP16 luciferase reporter activation, counter-screen for SMARCA2 (BRM) activator project, cell-based, pG5luc, luminescence, high throughput; activation, % at 9.1 µM; HEK293 GAL4-VP16 pG5luc reporter; scaled: DMSO wells 0%, SAHA wells 100%; 41% of 3,500 active; shares compounds with SMARCA2 act;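 active = activation above the solvent-only control well mean plus 3 SD, averaged across control plates, cut at about 5.2% in these data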
Large screens that a line does not name were inactive (follow-up assays come after a bar, where they were run).

The chains behind the UniProt entries cited, without tags or fusion partners.
Protein disulfide-isomerase A6 (Homo sapiens), Q15084, UniProt Q15084, whole entry, looked up: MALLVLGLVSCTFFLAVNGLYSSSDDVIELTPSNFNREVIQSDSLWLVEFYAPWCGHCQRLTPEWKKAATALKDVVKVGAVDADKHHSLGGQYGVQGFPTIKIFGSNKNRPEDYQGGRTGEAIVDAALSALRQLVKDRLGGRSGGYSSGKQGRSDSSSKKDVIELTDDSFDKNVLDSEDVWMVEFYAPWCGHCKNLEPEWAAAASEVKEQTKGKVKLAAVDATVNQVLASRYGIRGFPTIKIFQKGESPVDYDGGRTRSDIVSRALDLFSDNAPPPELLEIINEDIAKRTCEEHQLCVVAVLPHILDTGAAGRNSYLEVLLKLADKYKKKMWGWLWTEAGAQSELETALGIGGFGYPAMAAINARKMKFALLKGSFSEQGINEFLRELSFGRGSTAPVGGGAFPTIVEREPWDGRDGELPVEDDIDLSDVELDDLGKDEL

CCCC(C)NC(=O)CN(Cc1ccco1)S(=O)(=O)c1ccccc1 (stereo not drawn)	SMARCA2 act 15 | SMARCA2 act conf inactive | VP16 Luc act inactive
C[C@H](CO)N1C[C@H](C)[C@@H](CN(C)C(=O)NC2CCCCC2)Oc2ccc(NC(=O)Cn3cnnn3)cc2CC1=O	none (no result: SMARCA2 act, Rev-erbA mod, PDI inh)
COc1cc(/C=N/N=C2/NC(=O)C(Cc3ccccc3)S2)ccc1O (stereo not drawn)	SMARCA2 act 9.0 | SMARCA2 act conf inactive | VP16 Luc act 5.3
CCN(CC)C(=O)Oc1ccc2c(=O)c(-c3ccccc3)coc2c1	SMARCA2 act 13 (no result: INS-1E GSIS act, ERp5 block) | SMARCA2 act conf inactive | VP16 Luc act 11
COc1ccc2c(=O)c(-c3ccccc3)coc2c1	none (no result: PDI inh)
COCC(=O)N[C@@H]1C=C[C@@H](CC(=O)NCc2ccccc2OC)O[C@@H]1CO	none (no result: SMARCA2 act, Rev-erbA mod, PDI inh)
O=C1[C@H](Cc2ccc(F)cc2)CCn2cc(nn2)COC[C@H]2CCCN12	none (no result: UUG fidelity, SMARCA2 act, Rev-erbA mod, ERp5 block, PDI inh)
CC(=O)Nc1c(C(=O)O)oc2ccccc12	SMARCA2 act 8.1 (no result: INS-1E GSIS act, ERp5 block) | SMARCA2 act conf inactive | VP16 Luc act inactive
CCC1CSC(=Nc2ccc(C)cc2)N1C(=O)CN1C(=O)NC2(CCCC2)C1=O (stereo not drawn)	SMARCA2 act 9.7 | SMARCA2 act conf 11 | VP16 Luc act 8.2
Cc1ccc(C(NC(=O)CN2C(=O)NC3(CCCC3)C2=O)c2ccccc2)cc1 (stereo not drawn)	none (no result: INS-1E GSIS act)
O=C(Oc1cccc(-c2cnc3ccccc3n2)c1)c1ccco1	SMARCA2 act 10 (no result: ERp5 block) | SMARCA2 act conf 8.7 | VP16 Luc act 13
CCN(CC)S(=O)(=O)c1ccc(C)c(C(=O)Oc2cccc(-c3cnc4ccccc4n3)c2)c1	none
Cc1cc(C)n(C(=O)c2ccc(C)o2)n1	SMARCA2 act 8.7 (no result: INS-1E GSIS act, ERp5 block) | SMARCA2 act conf inactive | VP16 Luc act inactive
COc1ccccc1C(=O)n1nc(C)cc1C	none (no result: ERp5 block)
O=C(C[C@@H]1C=C[C@H](NC(=O)c2ccncc2)[C@H](CO)O1)NCCc1ccncc1	none (no result: SMARCA2 act, Rev-erbA mod, PDI inh)
O=C(Cc1cccnc1)N1CC2(C1)[C@@H](c1ccccc1)[C@@H](CO)N2C(=O)C1CCC1	none (no result: UUG fidelity, SMARCA2 act, Rev-erbA mod, PDI inh)
C[C@H]1CCn2cc(nn2)COCCNC1=O	none (no result: UUG fidelity, SMARCA2 act, Rev-erbA mod, ERp5 block, PDI inh)
CC(C)CC#Cc1ccc2c(c1)O[C@H](CN(C)Cc1ccc(C(=O)O)cc1)[C@@H](C)CN([C@H](C)CO)S2(=O)=O	none (no result: SMARCA2 act, INS-1E GSIS act, Rev-erbA mod, PDI inh)
O=C(O)c1n[nH]c2c1CC(C1CCCCC1)CC2 (stereo not drawn)	none (no result: INS-1E GSIS act)
O=C(NC1CCCCC1)c1n[nH]c2c1CC(c1ccccc1)CC2 (stereo not drawn)	SMARCA2 act 8.0 | SMARCA2 act conf inactive | VP16 Luc act 12
CC(C)(C)Nc1ncnc2c1cnn2-c1ccccc1	SMARCA2 act 8.3 (no result: INS-1E GSIS act) | SMARCA2 act conf 11 | VP16 Luc act 13
COCCNc1ncnc2c1cnn2-c1ccc(Cl)cc1	SMARCA2 act 8.4 (no result: INS-1E GSIS act, ERp5 block) | SMARCA2 act conf 17 | VP16 Luc act 10
Cc1cc(C(=O)OCC(=O)c2ccc3c(c2)OCCO3)c(C)o1	SMARCA2 act 8.1 (no result: INS-1E GSIS act, ERp5 block) | SMARCA2 act conf inactive | VP16 Luc act inactive
O=C(COC(=O)c1ccc(Cl)nc1)c1ccc2c(c1)OCCO2	SMARCA2 act 10 (no result: UUG fidelity) | SMARCA2 act conf inactive | VP16 Luc act inactive
COC(=O)CNC(=O)COC(=O)c1ccc(Cl)nc1	SMARCA2 act 8.8 | SMARCA2 act conf inactive | VP16 Luc act inactive
CC=Cc1ccc2n(c1=O)C[C@H]1[C@H](CO)[C@@H](C(=O)NCC(F)(F)F)[C@@H]2N1C(=O)C1CC1 (mixture of isomers)	none (no result: SMARCA2 act, Rev-erbA mod, PDI inh)
COc1ccc(NC(=O)Nc2ccc3c(c2)[C@@H]2C[C@@H](CC(=O)O)O[C@H](CO)[C@@H]2O3)cc1	none (no result: UUG fidelity, SMARCA2 act, Rev-erbA mod, PDI inh)
C/C=C/c1ccc([C@H]2[C@@H](CO)N(C(=O)C3CCC3)[C@@H]2CNC(=O)CN(C)C)cc1	none (no result: UUG fidelity, SMARCA2 act, Rev-erbA mod, PDI inh)
CCN1CCN(Cc2ccc(NC(=O)c3cc(NC(=O)C(=O)c4c[nH]c5ccccc45)cc(OC)c3)cc2C(F)(F)F)CC1	SMARCA2 act 10 | SMARCA2 act conf inactive | VP16 Luc act inactive
CCN1CCN(Cc2ccc(NC(=O)c3ccc(C)c(NC(=O)C(=O)c4c[nH]c5ccccc45)c3)cc2C(F)(F)F)CC1	none
CO[C@H]1CN(C)C(=O)c2cc(NS(=O)(=O)c3ccccc3C)ccc2OC[C@@H](C)N(S(C)(=O)=O)C[C@@H]1C	none (no result: SMARCA2 act, INS-1E GSIS act, Rev-erbA mod, PDI inh)
O=C(O)c1cn(C2CCCCC2)c2ccccc2c1=O	SMARCA2 act 17 | SMARCA2 act conf inactive | VP16 Luc act inactive
O=C(O)c1cn(Cc2ccccc2)c2ccccc2c1=O	none (no result: ERp5 block)
COc1cc2nc(C3CCC3)nc(N3CCN(c4ccccc4OC)CC3)c2cc1OC	SMARCA2 act 9.4 (no result: UUG fidelity) | SMARCA2 act conf inactive | VP16 Luc act inactive
COc1cc2nc(C3CCC3)nc(N3CCN(c4ccccn4)CC3)c2cc1OC	none (no result: SMARCA2 act, INS-1E GSIS act, Rev-erbA mod, ERp5 block)
COc1ccccc1N1CCN(C2=Nc3cccc4cccc2c34)CC1	SMARCA2 act 9.2 | SMARCA2 act conf 22 | VP16 Luc act 6.5
Cn1c(C2=C(O)CN(Cc3ccccc3)C2=N)nc2ccccc21	SMARCA2 act 8.6 (no result: UUG fidelity) | SMARCA2 act conf inactive | VP16 Luc act inactive
C=CCNc1nc(NCc2ccc(N(C)C)cc2)c2sc(-c3ccccc3)cc2n1	SMARCA2 act 10 | SMARCA2 act conf 11 | VP16 Luc act 11
C=CCNc1nc(NCCOC)c2sc(-c3ccccc3)cc2n1	none
COCCn1c(C)cc(C(=O)COC(=O)c2ccc(Br)o2)c1C	none (no result: UUG fidelity, INS-1E GSIS act)
Cc1cc(C(=O)COC(=O)c2ccc(Br)o2)c(C)n1C	SMARCA2 act 9.7 | SMARCA2 act conf 15 | VP16 Luc act 6.5
COC(=O)C[C@@H]1C[C@@H]2c3cc(NC(=O)Nc4ccc(F)cc4)ccc3O[C@@H]2[C@H](CO)O1	none (no result: SMARCA2 act, Rev-erbA mod, ERp5 block, PDI inh)
Cc1noc(C)c1NC(=O)Nc1cccc2c1O[C@H](CN(C)C(=O)Nc1cccc3ccccc13)[C@H](C)CN([C@H](C)CO)C2=O	none (no result: SMARCA2 act, Rev-erbA mod, PDI inh)
Cc1cccc(N=Nc2cnc(N)s2)c1	SMARCA2 act 8.1 | SMARCA2 act conf inactive | VP16 Luc act inactive
CC(=O)Nc1ncc(N=Nc2cccc(C(F)(F)F)c2)s1	none
COc1ccc(/C=C(/C(=O)c2cccs2)N2C=CC=CC2=C(C#N)C#N)cc1	SMARCA2 act 15 (no result: UUG fidelity) | SMARCA2 act conf inactive | VP16 Luc act 11
